The values below come from PubChem BioAssay AID952 (NMMLSC, 2007).

Chains of the proteins cited; added tags and fusions are not shown.
UniProt Q92843, whole entry: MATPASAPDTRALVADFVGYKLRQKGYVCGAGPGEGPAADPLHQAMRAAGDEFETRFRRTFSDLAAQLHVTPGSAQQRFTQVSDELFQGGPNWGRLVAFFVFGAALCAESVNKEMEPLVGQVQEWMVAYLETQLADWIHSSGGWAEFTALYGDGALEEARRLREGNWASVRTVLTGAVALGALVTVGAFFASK

The list shows a part of the results, in another mix than the full data. Calls of active or inactive are those of the source. Cut-off read from the data, not from the text of the source: active = inhibition above about 40%.

For this assay, the target named is Bcl-2-like protein 2 (Homo sapiens) (UniProt Q92843). Nature of the assay: Bcl-W/Bim complex disruptors – biochemical, multiplexed, bead-based flow cytometry, primary screen (AID 952).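 Note: 0% = bound tracer without compound and 100% = peptide blocker; higher means less fluorescent Bim peptide bound to Bcl-W beads.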 To be noted: Bim peptide-Bcl-W binding, at 10 µM, active compounds read high.
With `N#CC1(Nc2ccccc2)CCN(CCc2ccccc2)CC1`, the inhibition (usually the relative decrease from the control value, in per cent) was inactive: -2%.

On to `O=C(NCC1(N2CCCCC2)CCCCC1)c1cccc([N+](=O)[O-])c1`, for which the inhibition was inactive: 1%. The result for `O=C(NCC1(N2CCOCC2)CCCCC1)c1cc(=O)[nH]c2ccccc12` reads inactive: -5%; that for `CN1CCN(CCOC(=O)C(O)(c2ccccc2)c2ccccc2)CC1`, inactive: -3%; that for `COc1ccc(NC2CCN(C(=O)OC(C)(C)C)CC2)cc1`, inactive: -1%. For `CC(C)c1ccc(NC2CCN(C(=O)OC(C)(C)C)CC2)cc1` the value was inactive: 4%; for `COc1ccc(CN(CCCl)CCCl)cc1Cl`, inactive: 0%.

As to `CN(C)c1cccc(C(=O)NCC2(N3CCCCC3)CCCCC2)c1`, the inhibition is inactive: -1%. For `COc1ccc(C(=O)NCC2(N3CCCCC3)CCCCC2)c(OC)c1OC` the value was inactive: 0%; for `O=C(NCC1(N2CCOCC2)CCCCC1)c1cc2ccccc2o1`, inactive: 1%. For `O=C(OC1CN2CCC1CC2)C1c2ccccc2Oc2ccccc21` (stereo not given) the value was inactive: 3%; for `CCOC(=O)N1CCC(Nc2ccc(OC)cc2)CC1`, inactive: -4%; for `COc1ccc(NC2CCN(CCc3ccccc3)CC2)c(OC)c1`, inactive: 1%. Take `Fc1ccccc1NC1CCN(Cc2ccccc2)CC1`: the inhibition was inactive: 0%. The result for `CCN1CCC(Nc2cccc(F)c2)CC1` reads inactive: 0%. Turning to `CN(C)c1ccc(C(=O)NCC2(N3CCCCC3)CCCCC2)cc1`, the inhibition was inactive: -3%. The result for `CCOc1ncccc1C(=O)NCC1(N2CCOCC2)CCCCC1` reads inactive: -3%; that for `CC(C)(C)OC(=O)N1CCC(Nc2ccccc2)CC1`, inactive: 0%; that for `COc1cc(OC)cc(C(=O)NCC2(N3CCOCC3)CCCCC2)c1`, inactive: 1%. With `CCC(CO)(C(=O)OC1CN2CCC1CC2)c1ccccc1` (stereo not given), the inhibition was inactive: 0%. For `COc1ccc(C(=O)NCC2(N3CCOCC3)CCCCC2)cc1OC` the value was inactive: 1%; for `N/C(=N\O)c1c(N)no[n+]1[O-]`, inactive: -2%. The result for `O=C(OC1CN2CCC1CC2)C1c2ccccc2C=Cc2ccccc21` (stereo not given) reads inactive: -3%; that for `N#Cc1ccc(C(=O)NCC2(N3CCCCC3)CCCCC2)cc1`, inactive: -2%. With `c1ccc(CN2CCC(Nc3ccccc3)CC2)cc1`, the inhibition is inactive: -3%.
